Assay results from patent publication US6566541B2, “Type 2 methionine aminopeptidase (MetAP2) inhibitors and uses thereof” (Massachusetts Institute of Technology, priority 1997, dated 2003).

The chains behind the UniProt entries cited, without tags or fusion partners.
UniProt P50579, whole entry: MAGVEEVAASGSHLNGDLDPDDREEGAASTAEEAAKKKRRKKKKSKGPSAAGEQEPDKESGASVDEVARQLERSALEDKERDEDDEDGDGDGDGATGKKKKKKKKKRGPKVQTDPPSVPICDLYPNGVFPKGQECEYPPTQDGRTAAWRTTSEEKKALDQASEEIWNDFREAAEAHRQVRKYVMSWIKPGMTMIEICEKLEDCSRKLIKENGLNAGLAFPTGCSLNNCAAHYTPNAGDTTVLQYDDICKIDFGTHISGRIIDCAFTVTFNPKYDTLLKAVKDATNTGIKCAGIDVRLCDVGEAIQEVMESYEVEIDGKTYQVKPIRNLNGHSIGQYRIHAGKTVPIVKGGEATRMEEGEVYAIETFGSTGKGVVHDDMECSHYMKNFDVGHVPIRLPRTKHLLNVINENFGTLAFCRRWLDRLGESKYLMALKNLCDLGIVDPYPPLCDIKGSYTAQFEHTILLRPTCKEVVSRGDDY

What was measured:
[1] = target: recombinant human MetAP2 (Homo sapiens, UniProt P50579); assay: methionine aminopeptidase activity of MetAP2 (Met-Gly-Met-Met substrate); type: biochemical; details: read-out: MetAP2 IC50; MetAP2 enzymatic activity; average of at least three experiments
[2] = system: bovine aortic endothelial cell (BAEC); assay: bovine aortic endothelial cell (BAEC) proliferation assay (MTT); type: cell-based; details: read-out: Proliferation IC50, average of at least three experiments

| SMILES | IC50 [1] | IC50 [2] |
| --- | --- | --- |
| COC1C(O)CCC2(CO2)C1C1(C)OC1CC=C(C)C (centres unmarked) | 8 nM | 9.5 nM |
| COC1C(OC(=O)CCCCl)CCC2(CO2)C1C1(C)OC1CC=C(C)C (centres unmarked) | – | 0.12 nM |
| COC1C(O)CCC(O)(CSC)C1C1(C)OC1CC=C(C)C (centres unmarked) | 5000 nM | 2800 nM |
